This is an account of results in patent US20090253669A1, “Substituted Sulfonamide Compounds” (GRUENENTHAL GmbH, priority 2008, published 2009).

Chains of the proteins cited; added tags and fusions are not shown.
UniProt P35372, whole entry, looked up: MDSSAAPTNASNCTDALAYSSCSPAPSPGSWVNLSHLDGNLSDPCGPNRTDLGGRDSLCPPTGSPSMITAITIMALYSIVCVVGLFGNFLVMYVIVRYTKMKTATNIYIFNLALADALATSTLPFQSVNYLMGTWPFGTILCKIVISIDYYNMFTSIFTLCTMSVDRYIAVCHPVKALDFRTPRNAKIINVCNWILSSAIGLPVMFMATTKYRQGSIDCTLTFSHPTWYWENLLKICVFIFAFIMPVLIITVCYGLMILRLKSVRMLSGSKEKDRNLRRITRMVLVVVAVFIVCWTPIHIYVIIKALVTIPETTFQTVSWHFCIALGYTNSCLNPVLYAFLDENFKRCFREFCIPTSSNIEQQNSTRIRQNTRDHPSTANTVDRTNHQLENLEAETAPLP

Each structure is given as a SMILES string.

In the assay the target is human μ opiate receptor (Homo sapiens, UniProt P35372). Briefly: [3H]-naloxone displacement, SPA, membranes of CHO-K1 cells. Particulars: 1 μM test substance; inhibition of specific binding of 1 nmol/l [3H]-naloxone.
On to `COc1cc(C)c(S(=O)(=O)N2CCCCC2COCC(=O)N(C)CC2CCC(Cc3ccccc3)(N3CCN(C)CC3)CC2)c(C)c1` (stereo not shown) [Compound 143, N-((4-benzyl-4-(4-methylpiperazin-1-yl)cyclohexyl)methyl)-2-((1-(4-methoxy-2,6-dimethylphenylsulfonyl)piperidin-2-yl)methoxy)-N-methylacetamide], for which the “μ opioid receptor [1 μM] % inhibition” value worked out at 34%.
With `CN(CCC1CCC(CCc2ccccc2)(N(C)C)CC1)C(=O)CC1CCCCN1S(=O)(=O)c1cccc(C(F)(F)F)c1` (stereo not shown) [Compound 76, N-(2-(4-(dimethylamino)-4-phenethylcyclohexyl)ethyl)-N-methyl-2-(1-(3-(trifluoromethyl)phenylsulfonyl)piperidin-2-yl)acetamide] the figure was 43%; with `COc1cc(C)c(S(=O)(=O)N2CCCCC2COCC(=O)N(C)CCCC2CCC(c3ccccc3)(N(C)C)CC2)c(C)c1` (stereo not shown) [Compound 203, N-(3-(4-(dimethylamino)-4-phenylcyclohexyl)propyl)-2-((1-(4-methoxy-2,6-dimethylphenylsulfonyl)piperidin-2-yl)methoxy)-N-methylacetamide], 80%.
The same measure for `COc1cc(C)c(S(=O)(=O)N2CCCCC2COCC(=O)N(C)CC2CCC(c3ccccc3)(N3CCCC3)CC2)c(C)c1` (stereo not shown) [Compound 66, 2-((1-(4-methoxy-2,6-dimethylphenylsulfonyl)piperidin-2-yl)methoxy)-N-methyl-N-((4-phenyl-4-(pyrrolidin-1-yl)cyclohexyl)methyl)acetamide]: 31%; for `COc1cc(C)c(S(=O)(=O)N(C)CCOCC(=O)N(C)CC2CCC(CCc3ccccc3)(N3CCCC3)CC2)c(C)c1` (stereo not shown) [Compound 47, 2-(2-(4-methoxy-N,2,6-trimethylphenylsulfonamido)ethoxy)-N-methyl-N-((4-phenethyl-4-(pyrrolidin-1-yl)cyclohexyl)methyl)acetamide]: 39%.
As for `Cc1cc(S(=O)(=O)N2CCCCC2CCC(=O)N2CCC(CCc3ccccc3)(N3CCN(C)CC3)CC2)c(C)cc1Cl` (stereo not shown) [Compound 122, 3-(1-(4-chloro-2,5-dimethylphenylsulfonyl)piperidin-2-yl)-1-(4-(4-methylpiperazin-1-yl)-4-phenethylpiperidin-1-yl)propan-1-one], the “μ opioid receptor [1 μM] % inhibition” value is given as 2%.
In the case of `CN1CCN(C2(c3cccc(F)c3)CCN(C(=O)CC(NS(=O)(=O)c3ccc4ccccc4c3)c3ccccc3)CC2)CC1` (stereo not shown) [Compound 120, N-(3-(4-(3-fluorophenyl)-4-(4-methylpiperazin-1-yl)piperidin-1-yl)-3-oxo-1-phenylpropyl)naphthalene-2-sulfonamide], the “μ opioid receptor [1 μM] % inhibition” value stood at 35%.
The same measure for `COc1cc(C)c(S(=O)(=O)N2CCCCC2COCC(=O)N2CCC(Cc3ccccc3)(N3CCN(C)CC3)CC2)c(C)c1` (stereo not shown) [Compound 57, 1-(4-benzyl-4-(4-methylpiperazin-1-yl)piperidin-1-yl)-2-((1-(4-methoxy-2,6-dimethylphenylsulfonyl)piperidin-2-yl)methoxy)ethanone]: 19%; for `CN1CCN(C2(Cc3ccccc3)CCC(CN(C)C(=O)COC3CCCN(S(=O)(=O)c4c(Cl)cc(Cl)cc4Cl)C3)CC2)CC1` (stereo not shown) [Compound 175, N-((4-benzyl-4-(4-methylpiperazin-1-yl)cyclohexyl)methyl)-N-methyl-2-(1-(2,4,6-trichlorophenylsulfonyl)piperidin-3-yloxy)acetamide]: 58%; for `COc1cc(C)c(S(=O)(=O)N2CCCCC2COCC(=O)N(C)CCC2CCC(c3ccccc3)(N(C)C)CC2)c(C)c1` (stereo not shown) [Compound 81, N-(2-(4-(dimethylamino)-4-phenylcyclohexyl)ethyl)-2-((1-(4-methoxy-2,6-dimethylphenylsulfonyl)piperidin-2-yl)methoxy)-N-methylacetamide]: 96%.
In the case of `COc1cc(C)c(S(=O)(=O)N2CCC(OCC(=O)NC3CCC(c4ccccc4)(N4CCCC4)CC3)C2)c(C)c1` (stereo not shown) [Compound 153, 2-(1-(4-methoxy-2,6-dimethylphenylsulfonyl)pyrrolidin-3-yloxy)-N-(4-phenyl-4-(pyrrolidin-1-yl)cyclohexyl)acetamide], the “μ opioid receptor [1 μM] % inhibition” value amounted to 86%.
With `COc1cc(C)c(S(=O)(=O)N(C)CCOCC(=O)NCC2CCC(c3ccccc3)(N3CCOCC3)CC2)c(C)c1` (stereo not shown) [Compound 185, 2-(2-(4-methoxy-N,2,6-trimethylphenylsulfonamido)ethoxy)-N-((4-morpholino-4-phenylcyclohexyl)methyl)acetamide] the figure was 15%; with `COc1cc(C)c(S(=O)(=O)N(C)CCOCC(=O)N(C)CCC2CCC(c3cccnc3)(N(C)C)CC2)c(C)c1` (stereo not shown) [Compound 207, N-(2-(4-(Dimethylamino)-4-(pyridin-3-yl)cyclohexyl)ethyl)-2-(2-(4-methoxy-N,2,6-trimethylphenylsulfonamido)ethoxy)-N-methylacetamide], 96%.
`CN(C)C1(CCc2ccccc2)CCN(C(=O)CC2CCCCN2S(=O)(=O)c2cccc(C(F)(F)F)c2)CC1` (stereo not shown) [Compound 71, 1-(4-(dimethylamino)-4-phenethylpiperidin-1-yl)-2-(1-(3-(trifluoromethyl)phenylsulfonyl)piperidin-2-yl)ethanone]: the “μ opioid receptor [1 μM] % inhibition” value was 28%.
With `COc1cc(C)c(S(=O)(=O)N2CCCCC2COCC(=O)N(C)CC2CCC(CCc3ccccc3)(N3CCN(C)CC3)CC2)c(C)c1` (stereo not shown) [Compound 144, 2-((1-(4-methoxy-2,6-dimethylphenylsulfonyl)piperidin-2-yl)methoxy)-N-methyl-N-((4-(4-methylpiperazin-1-yl)-4-phenethylcyclohexyl)methyl)acetamide] the figure was 19%; with `COc1cc(C)c(S(=O)(=O)N(C)CCOCC(=O)N(C)CCCC2CCC(c3ccccc3)(N3CCCC3)CC2)c(C)c1` (stereo not shown) [Compound 83, 2-(2-(4-methoxy-N,2,6-trimethylphenylsulfonamido)ethoxy)-N-methyl-N-(3-(4-phenyl-4-(pyrrolidin-1-yl)cyclohexyl)propyl)acetamide], 63%.
The same measure for `O=C(COC1CCN(S(=O)(=O)c2c(Cl)cc(Cl)cc2Cl)C1)NC1CCC(c2ccccc2)(N2CCCC2)CC1` (stereo not shown) [Compound 178, N-(4-phenyl-4-(pyrrolidin-1-yl)cyclohexyl)-2-(1-(2,4,6-trichlorophenylsulfonyl)pyrrolidin-3-yloxy)acetamide]: 92%.
With `Cc1ccccc1CC1(N(C)C)CCC(NC(=O)CC2c3ccccc3CCN2S(=O)(=O)c2ccc(Cl)c(Cl)c2)CC1` (stereo not shown) [Compound 12, 2-(2-(3,4-dichlorophenylsulfonyl)-1,2,3,4-tetrahydroisoquinolin-1-yl)-N-(4-(dimethylamino)-4-(2-methylbenzyl)cyclohexyl)acetamide] the figure was 37%.
For `CN1CCN(C2(CCc3ccccc3)CCN(C(=O)CC3CCCCN3S(=O)(=O)c3cccc(C(F)(F)F)c3)CC2)CC1` (stereo not shown) [Compound 119, 1-(4-(4-methylpiperazin-1-yl)-4-phenethylpiperidin-1-yl)-2-(1-(3-(trifluoromethyl)phenylsulfonyl)piperidin-2-yl)ethanone], the “μ opioid receptor [1 μM] % inhibition” value is 59%.
With `COc1cc(C)c(S(=O)(=O)N(C)CCOCC(=O)N2CCC(Cc3ccccc3)(N3CCN(C)CC3)C2)c(C)c1` (stereo not shown) [Compound 197, N-(2-(2-(3-benzyl-3-(4-methylpiperazin-1-yl)pyrrolidin-1-yl)-2-oxoethoxy)ethyl)-4-methoxy-N,2,6-trimethylbenzenesulfonamide] the figure was 13%.
Consider `O=C(CC1c2ccccc2CCN1S(=O)(=O)c1ccc(Cl)c(Cl)c1)NC1CCC(Cc2ccccc2)(N2CCCCC2)CC1` (stereo not shown) [Compound 15, N-(4-benzyl-4-(piperidin-1-yl)cyclohexyl)-2-(2-(3,4-dichlorophenylsulfonyl)-1,2,3,4-tetrahydroisoquinolin-1-yl)acetamide], for which the “μ opioid receptor [1 μM] % inhibition” value amounted to 15%.
The same measure for `COc1cc(C)c(S(=O)(=O)N(C)CCOCC(=O)N2CCC(c3cccc(F)c3)(N3CCN(C)CC3)CC2)c(C)c1`: 2%; for `COc1cc(C)c(S(=O)(=O)N(C)CCOCC(=O)N2CCC(CCc3ccccc3)(N3CCN(C)CC3)CC2)c(C)c1` [Compound 87, 4-methoxy-N,2,6-trimethyl-N-(2-(2-(4-(4-methylpiperazin-1-yl)-4-phenethylpiperidin-1-yl)-2-oxoethoxy)ethyl)benzenesulfonamide]: 27%.
As for `COc1cc(C)c(S(=O)(=O)N2CCCCC2COCC(=O)N2CCC(CCc3ccccc3)(N3CCN(C)CC3)CC2)c(C)c1` (stereo not shown) [Compound 77, 2-((1-(4-methoxy-2,6-dimethylphenylsulfonyl)piperidin-2-yl)methoxy)-1-(4-(4-methylpiperazin-1-yl)-4-phenethylpiperidin-1-yl)ethanone], the “μ opioid receptor [1 μM] % inhibition” value came out at 38%.
With `COc1cc(C)c(S(=O)(=O)N2CCCCC2COCC(=O)N2CCC(c3cccc(F)c3)(N3CCN(C)CC3)CC2)c(C)c1` (stereo not shown), the “μ opioid receptor [1 μM] % inhibition” value came to 3%.
The same measure for `COc1cc(C)c(S(=O)(=O)N2CCCC[C@H]2COCC(=O)N(C)CCC2CCC(c3ccccc3)(N3CCC3)CC2)c(C)c1` (stereo partly drawn) [Compound 201, (S)-N-(2-(4-(azetidin-1-yl)-4-phenylcyclohexyl)ethyl)-2-((1-(4-methoxy-2,6-dimethylphenylsulfonyl)piperidin-2-yl)methoxy)-N-methylacetamide]: 81%; for `COc1cc(C)c(S(=O)(=O)N(C)CCOCC(=O)N2CCC(c3cccnc3)(N(C)C)CC2)c(C)c1` [Compound 208, N-(2-(2-(4-(Dimethylamino)-4-(pyridin-3-yl)piperidin-1-yl)-2-oxoethoxy)ethyl)-4-methoxy-N,2,6-trimethylbenzenesulfonamide]: 30%.
With `COc1cc(C)c(S(=O)(=O)N(C)CCOCC(=O)N(C)CCC2CCC(Cc3ccccc3)(N(C)C)CC2)c(C)c1` (stereo not shown) [Compound 53, N-(2-(4-benzyl-4-(dimethylamino)cyclohexyl)ethyl)-2-(2-(4-methoxy-N,2,6-trimethylphenylsulfonamido)ethoxy)-N-methylacetamide] the figure was 56%.
